In patent US7390795B2, “Treatment and prevention of tissue damage” (Pentraxin Therapeutics Limited, priority 2000, dated 2008):

Biological target: T1, C-reactive protein (CRP) (Homo sapiens, UniProt P02741)
T1 construct: from tissue; host or cells: Human material
T1 sequence (P02741 19-224): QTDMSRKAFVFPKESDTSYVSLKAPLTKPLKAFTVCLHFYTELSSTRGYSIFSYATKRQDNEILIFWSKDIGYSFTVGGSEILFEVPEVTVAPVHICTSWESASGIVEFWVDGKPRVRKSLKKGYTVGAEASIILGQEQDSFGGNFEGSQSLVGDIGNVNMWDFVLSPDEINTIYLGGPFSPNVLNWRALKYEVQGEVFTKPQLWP
Test: Inhibition of binding of 125I radiolabelled CRP to enzyme modified low density lipoprotein immobilized in microtitre plates
Procedure: Screening for Inhibitors of Binding of ^125I Radiolabelled CRP to Enzyme Modified Low Density Lipoprotein Immobilized in Microtitre Plates. […] However, likely critical ligands of importance in vivo in the pathogenesis of atherothrombosis, are modified forms of low density lipoprotein. […] All wells were then washed three times with 200 μl volumes of PBS before blocking by incubation for 1 h at room temperature with 100 μl per well of 0.2 m Tris pH 8.0. The wells were then washed again 3 times with 200 μl volumes of PBS and finally emptied before adding to each one 100 μl volumes of the following reagents.

SMILES: C[N+](C)(C)CCOP(=O)([O-])O [Phosphocholine, phosphocholine]
- Percent inhibition of binding of radiolabelled CRP to immobilized enzyme modified low density lipoprotein (compound molarity 1 μM): 0
- Percent inhibition of binding of radiolabelled CRP to immobilized enzyme modified low density lipoprotein (compound molarity 10 μM): 46
- Percent inhibition of binding of radiolabelled CRP to immobilized enzyme modified low density lipoprotein (compound molarity 100 μM): 93
- Percent inhibition of binding of radiolabelled CRP to immobilized enzyme modified low density lipoprotein (compound molarity 1 mM): 94
- Percent inhibition of binding of radiolabelled CRP to immobilized enzyme modified low density lipoprotein (compound molarity 10 mM): 95
